In publication PMC6728138, “Quantitative mapping of protein-peptide affinity landscapes using spectrally encoded beads” (eLife, 2019):

Key:
calcineurin (CN) = target: T1, calcineurin (CN) (Homo sapiens, UniProt Q08209); test: MRBLE-pep calcineurin binding assay (concentration-dependent); conditions: bold value over the codes; read-out: kd, 'Triplicate high' library
T1 construct: human calcineurin A isoforms (truncated at residue 400); made in house; host or cells: E. coli BL21 (DE3)
Description: MRBLEs were prepared by transferring a 20 μL aliquot from a 600 μL suspension (∼3000–8000 beads depending on pellet size) to a 100 μL PCR strip (20 μL for each CN concentration), exchanging buffer via 3 cycles of iterative pelleting, decanting, and resuspension with 0.1% PBST containing 5% BSA, pH = 7.5 (100 μL), and then left mixing at ∼5 °C on a rotator in the same wash buffer overnight (∼14 hr). MRBLEs were then buffer exchanged once again with CN binding buffer (50 mM Tris pH = 7.5, 150 mM NaCl, 0.1% TWEEN 20) via three iterative cycles of pelleting, decanting, and resuspension.
After incubation, MRBLEs were pelleted, decanted, and washed once with 0.1% PBST (100 μL). After a final round of pelleting and decanting, 20 μL of 0.1% PBST was added and the beads were transferred to a quartz microscope slide for imaging.
The affinity ( Kd ) for each peptide in a MBRLE library was determined via a two-step nonlinear regression using a single-site binding model:(1) Ii=(Imax[CNtotal])/(Kd,i+[CNtotal]) where Ii is the median measured fluorescence intensity for each peptide, Kd,i is the dissociation constant for that interaction, [ CNtotal ] is total CN concentration, and Imax is a global variable representing the fluorescence intensity once MRBLE-pep beads are saturated. First, we determined the global saturation value ( Imax ), by globally fitting the top 80% highest-intensity MRBLE codes. Next, we globally fit the entire data set using this Imax value to yield an estimated absolute affinity ( Kd ) for all peptides in the library. […] Differences in binding affinity were calculated relative to a reference peptide using the standard equation:(2) ΔΔG=RTln(Kd,i/Kd,ref)
Next, we used this reference value and calculated differences in binding affinity ( ΔΔG ) to estimate absolute Kd values for each peptide within the calibration and full calibration libraries (Figure 2—source data 1, Figure 2—source data 2, Figure 5—source data 1, Figure 5—source data 2, Figure 5—source data 3, Figure 5—source data 4).

[1] = system: NFAT-driven luciferase activity in HEK293T cells; test: In vivo calcineurin activity assay (NFAT dual luciferase reporter); type: cell-based
Source text: The ultimate goal of mapping CN-SLiM binding energy landscapes is to improve understanding of CN target substrate recognition and enable rational design of in vivo inhibitors. To test the degree to which in vitro MRBLE-pep affinities predict in vivo inhibition, we used a previously developed dual luciferase reporter assay to assess the activity of the NFAT2 transcription factor in HEK293T cells (Figure 6A) ([Grigoriu et al., 2013]). NFAT2 must be dephosphorylated by CN to accumulate in the nucleus, where it activates transcription of its target genes, and this interaction can be inhibited by peptides or small molecules that binds to CN. Reduction of NFAT2-dependent transcriptional activity upon expression of a competing PxIxIT peptide therefore reflects, quantitatively, the affinity of the inhibitor peptide for CN. Candidate PxIxIT inhibitors were co-expressed as GFP-fusion proteins within cells to enhance their stability and facilitate direct measurement of inhibitor concentrations.
PxIxIT peptides were fused to eGFP in pEGFPc1 vector. HEK293T cells were transfected with pEGFPc1 clones, pNFAT-Luc and CMV-Renilla in a 6-well plate format. 18 hr post transfection, 1μM FK506 or DMSO (vehicle) was added to the media as needed. 36 hr post transfection, cells were treated with 1 mM Ionomycin and 1 mM phorbol 12,13 di-butyrate to activate calcineurin and AP-1 (via PKC) respectively. 6 hr after pathway activation, cells were collected, washed in PBS and re-suspended in DMEM media. 80% of the cells were used to measure luciferase activity and renilla using the Dual-Glo assay system (Promega) with three technical replicates. The remaining cells were frozen and stored at −80°C. Cell lysates were prepared in RIPA buffer. 15–20 μg of lysate was analyzed by Western for expression of GFP. GFP signal was normalized to either actin or tubulin. Luciferase activity (normalized to renilla expression) was further normalized to eGFP expression. Data represent at least three experimental replicates.

[2] = all other peptides in vivo experiment, replicate 1
[3] = all other peptides in vivo experiment, replicate 2
[4] = all other peptides in vivo experiment, replicate 3
[5] = initial in vivo experiment, replicate 1, FK506 1 μM
[6] = initial in vivo experiment, replicate 2, FK506 1 μM
[7] = initial in vivo experiment, replicate 3, FK506 1 μM
[8] = PKIVIT in vivo experiment, replicate 1
[9] = PKIVIT in vivo experiment, replicate 2
[10] = PKIVIT in vivo experiment, replicate 3
[11] = PKIVIT in vivo experiment, replicate 4

CC[C@H](C)[C@H](NC(=O)[C@@H](NC(=O)[C@@H](NC(=O)[C@@H](NC(=O)[C@@H]1CCCN1C(=O)[C@@H](N)Cc1c[nH]cn1)C(C)C)[C@@H](C)CC)C(C)C)C(=O)N[C@@H](CC(N)=O)C(=O)NCC(=O)N1CCC[C@H]1C(=O)N[C@@H](Cc1c[nH]cn1)C(N)=O
Kd (calcineurin (CN)): 26.9 ± 1.34 µM

PRIEIT [PRIEIT (NFAT), NFATc2 PxIxIT peptide fused to eGFP]
NFAT-driven luciferase activity, normalized, relative to empty vector (Data) [1, 2]: 0.417
NFAT-driven luciferase activity, normalized, relative to empty vector (Data) [1, 3]: 0.3945
NFAT-driven luciferase activity, normalized, relative to empty vector (Data) [1, 4]: 0.5589
NFAT-driven luciferase activity, normalized to renilla and eGFP expression, relative to empty vector (Data) [1, 5]: 0.5207
NFAT-driven luciferase activity, normalized, relative to empty vector (Data) [1, 6]: 0.3665
NFAT-driven luciferase activity, normalized, relative to empty vector (Data) [1, 7]: 0.5522

EPKIVIT [PKIVIT-eGFP variant]
NFAT-driven luciferase activity, normalized, relative to empty vector (Data) [1, 8]: 0.3361
NFAT-driven luciferase activity, normalized, relative to empty vector (Data) [1, 9]: 0.4725
NFAT-driven luciferase activity, normalized, relative to empty vector (Data) [1, 10]: 0.2064
NFAT-driven luciferase activity, normalized, relative to empty vector (Data) [1, 11]: 0.1312

CC[C@H](C)[C@H](NC(=O)[C@H](CCCNC(=N)N)NC(=O)[C@@H]1CCCN1C(=O)[C@H](CO)NC(=O)[C@H](CCC(=O)O)NC(=O)[C@H](CC(C)C)NC(=O)[C@H](C)NC(=O)[C@@H]1CCCN1)C(=O)N[C@@H](CCC(=O)O)C(=O)N[C@H](C(=O)N[C@H](C(=O)N[C@@H](CO)C(=O)N[C@@H](CS)C(=O)N[C@@H](CC(C)C)C(=O)NCC(=O)N[C@@H](CC(C)C)C(N)=O)[C@@H](C)O)[C@@H](C)CC
Kd (calcineurin (CN)): 57.9 ± 22.6 µM

IPKIVIT [PKIVIT-eGFP variant]
NFAT-driven luciferase activity, normalized, relative to empty vector (Data) [1, 8]: 0.04086
NFAT-driven luciferase activity, normalized, relative to empty vector (Data) [1, 9]: 0.05199
NFAT-driven luciferase activity, normalized, relative to empty vector (Data) [1, 10]: 0.03422
NFAT-driven luciferase activity, normalized, relative to empty vector (Data) [1, 11]: 0.02605

LPRIEIT [NFATc2-eGFP variant]
NFAT-driven luciferase activity, normalized, relative to empty vector (Data) [1, 2]: 0.2238
NFAT-driven luciferase activity, normalized, relative to empty vector (Data) [1, 3]: 0.1533
NFAT-driven luciferase activity, normalized, relative to empty vector (Data) [1, 4]: 0.1829

IAIIIT [IAIIIT (AKAP), AKAP79 PxIxIT peptide fused to eGFP]
NFAT-driven luciferase activity, normalized, relative to empty vector (Data) [1, 2]: 0.4425
NFAT-driven luciferase activity, normalized, relative to empty vector (Data) [1, 3]: 0.4249
NFAT-driven luciferase activity, normalized, relative to empty vector (Data) [1, 4]: 0.3809
NFAT-driven luciferase activity, normalized to renilla and eGFP expression, relative to empty vector (Data) [1, 5]: 0.4418
NFAT-driven luciferase activity, normalized, relative to empty vector (Data) [1, 6]: 0.4594
NFAT-driven luciferase activity, normalized, relative to empty vector (Data) [1, 7]: 0.4215
